Earlier results, collected in US20250229073A1, “TRANSIENT DISRUPTION OF THE NEUROVASCULAR BARRIER OF A HUMAN AND USES THEREOF FOR TREATING AMYOTROPHIC LATERAL SCLEROSIS” (SORBONNE UNIVERSITE, priority 2022, published 2025).

Test system: patients suffering from ALS
Conditions: clinical, literature; cited from earlier work

In the case of Nc1nc2ccc(OC(F)(F)F)cc2s1 [riluzole, 2-amino-6-trifluoromethoxybenzothiazole], the “survival of patients suffering from ALS” value is listed as “prolongs the survival”.
